Our source for the Survival and Ratio values is ChEMBL document CHEMBL1138339, “Novel, orally effective cyanide antidotes” (2007).

The test system of one assay is Mus musculus. In words: Protection against cyanide-induced toxicity in mouse assessed as survival at 1.45 mmol/kg, po administered 30 mins before cyanide treatment.
Take `CCOC(=O)C1(CS)N[C@H](C(=O)O)CS1` (stereo not given in full): the Survival amounted to 100%.
On the same count and under the same terms, with `CC(=O)O/C(=C\SC(C)=O)C(=O)O` the figure was 100%; with `CCOC(=O)/C(=C/SC(C)=O)OC(C)=O`, 100%; with `CCOC(=O)[C@@]1(O)CS[C@](O)(C(=O)OCC)CS1`, 100%.
For the molecule `O=C([O-])[C@@]1(O)CS[C@](O)(C(=O)[O-])CS1.[Na+].[Na+]`, the Survival was 100%.

The subject of another assay is Mus musculus. As to the kind of experiment: Protection against cyanide-induced toxicity in mouse assessed as survival at 1.45 mmol/kg, po administered 60 mins before cyanide treatment.
Regarding `CCOC(=O)C1(CS)N[C@H](C(=O)O)CS1` (stereo not given in full), the Survival was determined as 100%.
As to `CC(=O)O/C(=C\SC(C)=O)C(=O)O`, the Survival is 100%.

A further assay deals with Mus musculus. In words: Protection against cyanide-induced toxicity in mouse assessed as survival at 0.29 mmol/kg, ip administered 5 mins before cyanide treatment.
With `CCOC(=O)C1(CS)N[C@H](C(=O)O)CS1` (stereo not given in full), the Survival worked out at 100%.
Still for that read-out and setting: as for `CC(=O)O/C(=C\SC(C)=O)C(=O)O`, the figure is 100%.
As to `CCOC(=O)/C(=C/SC(C)=O)OC(C)=O`, the Survival amounted to 100%.
Consider `CCOC(=O)[C@@]1(O)CS[C@](O)(C(=O)OCC)CS1`, for which the Survival was 100%.

Another assay has as its system Mus musculus. In words: Protection against cyanide-induced toxicity in mouse assessed as survival at 0.29 mmol/kg, ip administered 5 mins after cyanide treatment.
Consider `CCOC(=O)C1(CS)N[C@H](C(=O)O)CS1` (stereo not given in full), for which the Survival amounted to 100%.
Still for that read-out and setting: as for `CC(=O)O/C(=C\SC(C)=O)C(=O)O`, the figure is 100%; as for `CCOC(=O)/C(=C/SC(C)=O)OC(C)=O`, 100%; as for `CCOC(=O)[C@@]1(O)CS[C@](O)(C(=O)OCC)CS1`, 100%.

Another assay relates to Mus musculus. In words: Protective index ratio, Recovery time for protection against cyanide-induced toxicity in mouse at 1.45 mmol/kg, po administered 30 mins before cyanide treatment over cyanide-induced toxicity in control.
As to `CCOC(=O)C1(CS)N[C@H](C(=O)O)CS1` (stereo not given in full), the Ratio stood at 2.1.
Regarding `CC(=O)O/C(=C\SC(C)=O)C(=O)O`, the Ratio amounted to 2.8.
Same read-out and setting: with `CCOC(=O)/C(=C/SC(C)=O)OC(C)=O` the figure was 5.4.
Turning to `CCOC(=O)[C@@]1(O)CS[C@](O)(C(=O)OCC)CS1`, the Ratio was determined as 4.6.
For `O=C([O-])[C@@]1(O)CS[C@](O)(C(=O)[O-])CS1.[Na+].[Na+]`, the Ratio is 4.

Another assay relates to Mus musculus. In words: Protective index ratio, Recovery time for protection against cyanide-induced toxicity in mouse at 1.45 mmol/kg, po administered 60 mins before cyanide treatment over cyanide-induced toxicity in control.
For `CCOC(=O)C1(CS)N[C@H](C(=O)O)CS1` (stereo not given in full), the Ratio stood at 2.
`CC(=O)O/C(=C\SC(C)=O)C(=O)O`: the Ratio worked out at 2.1.

The test system of the next assay is Mus musculus. In words: Protective index ratio, Recovery time for protection against cyanide-induced toxicity in mouse at 0.29 mmol/kg, ip administered 5 mins before cyanide treatment over cyanide-induced toxicity in control.
On to `CCOC(=O)C1(CS)N[C@H](C(=O)O)CS1` (stereo not given in full), for which the Ratio came out at 1.6.
`CC(=O)O/C(=C\SC(C)=O)C(=O)O`: the Ratio was determined as 7.6.
As for `CCOC(=O)/C(=C/SC(C)=O)OC(C)=O`, the Ratio came to 6.4.
The same measure, in the same setting: as for `CCOC(=O)[C@@]1(O)CS[C@](O)(C(=O)OCC)CS1`, the figure is 7.6.

For the next assay, the system named is Mus musculus. In words: Protective index ratio, Recovery time for protection against cyanide-induced toxicity in mouse at 0.29 mmol/kg, ip administered 5 mins after cyanide treatment over cyanide-induced toxicity in control.
For the molecule `CCOC(=O)C1(CS)N[C@H](C(=O)O)CS1` (stereo not given in full), the Ratio was 1.4.
With `CC(=O)O/C(=C\SC(C)=O)C(=O)O`, the Ratio was 1.7.
Turning to `CCOC(=O)/C(=C/SC(C)=O)OC(C)=O`, the Ratio turned out to be 2.3.
With `CCOC(=O)[C@@]1(O)CS[C@](O)(C(=O)OCC)CS1`, the Ratio turned out to be 3.9.
